Results reported in patent US20240025887A1, “THIENYL AND CYCLOALKYL AMINOPYRIMIDINE COMPOUNDS AS INHIBITORS OF NUAK KINASES, COMPOSITIONS AND USES THEREOF” (Ontario Institute for Cancer Research (OICR), priority 2021, published 2024).

By UniProt entry, the sequences of proteins in these tests, tags left out.
UniProt Q9H093, whole entry: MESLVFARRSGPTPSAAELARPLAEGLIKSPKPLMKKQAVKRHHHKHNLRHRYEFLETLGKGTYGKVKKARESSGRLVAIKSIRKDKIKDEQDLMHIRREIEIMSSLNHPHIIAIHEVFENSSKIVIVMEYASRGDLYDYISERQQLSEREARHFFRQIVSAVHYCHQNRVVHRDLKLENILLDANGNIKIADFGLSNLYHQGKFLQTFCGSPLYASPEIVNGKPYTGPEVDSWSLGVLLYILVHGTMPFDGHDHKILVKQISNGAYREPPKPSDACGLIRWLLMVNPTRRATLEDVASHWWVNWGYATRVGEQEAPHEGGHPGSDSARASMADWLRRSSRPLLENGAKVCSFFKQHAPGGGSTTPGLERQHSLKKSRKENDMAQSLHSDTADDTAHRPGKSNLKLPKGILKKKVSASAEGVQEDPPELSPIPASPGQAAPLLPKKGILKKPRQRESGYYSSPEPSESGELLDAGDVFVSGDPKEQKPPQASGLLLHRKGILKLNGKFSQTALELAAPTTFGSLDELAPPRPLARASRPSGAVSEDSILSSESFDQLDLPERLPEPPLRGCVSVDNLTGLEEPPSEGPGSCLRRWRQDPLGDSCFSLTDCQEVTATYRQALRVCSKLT
UniProt O60285, whole entry: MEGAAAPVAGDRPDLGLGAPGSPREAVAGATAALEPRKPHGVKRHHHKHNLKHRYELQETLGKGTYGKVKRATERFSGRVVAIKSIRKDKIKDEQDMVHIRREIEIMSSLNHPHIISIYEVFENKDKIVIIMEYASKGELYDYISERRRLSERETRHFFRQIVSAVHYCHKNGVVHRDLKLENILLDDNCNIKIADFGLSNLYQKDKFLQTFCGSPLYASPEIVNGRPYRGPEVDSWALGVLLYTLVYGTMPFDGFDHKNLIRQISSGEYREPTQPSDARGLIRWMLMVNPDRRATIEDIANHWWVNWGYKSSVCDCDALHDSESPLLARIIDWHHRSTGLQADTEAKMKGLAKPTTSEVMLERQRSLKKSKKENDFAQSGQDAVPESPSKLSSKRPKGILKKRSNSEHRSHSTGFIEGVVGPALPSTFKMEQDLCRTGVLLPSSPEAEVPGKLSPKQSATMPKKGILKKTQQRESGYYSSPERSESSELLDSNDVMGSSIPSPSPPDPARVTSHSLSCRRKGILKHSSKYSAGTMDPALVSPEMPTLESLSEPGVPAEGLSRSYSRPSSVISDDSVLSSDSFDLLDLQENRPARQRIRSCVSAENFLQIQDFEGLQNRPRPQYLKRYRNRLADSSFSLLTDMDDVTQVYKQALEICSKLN
UniProt O14965, whole entry: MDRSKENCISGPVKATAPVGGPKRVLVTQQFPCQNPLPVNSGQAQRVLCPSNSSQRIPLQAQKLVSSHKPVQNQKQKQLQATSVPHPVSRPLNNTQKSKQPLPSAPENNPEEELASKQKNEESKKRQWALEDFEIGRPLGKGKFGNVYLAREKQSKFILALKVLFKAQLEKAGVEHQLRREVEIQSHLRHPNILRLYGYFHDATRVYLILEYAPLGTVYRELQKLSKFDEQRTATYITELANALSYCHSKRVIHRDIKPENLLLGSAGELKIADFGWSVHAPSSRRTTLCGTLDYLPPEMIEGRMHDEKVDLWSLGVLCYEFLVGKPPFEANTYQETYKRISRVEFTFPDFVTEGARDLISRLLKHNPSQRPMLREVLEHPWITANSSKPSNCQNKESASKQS

What was measured:
Assay type in all cases: biochemical
NUAK2 (h) = NUAK2 (h) (Homo sapiens, UniProt Q9H093); test: NUAK2 enzymatic assay (radiometric, Eurofins); settings: read-out: NUAK2 (IC50), full-length recombinant enzyme
Description: (§1) To identify small molecule NUAK inhibitors, a biochemical NUAK2 enzymatic assay was outsourced to Eurofins. This assay was done radiometrically using full-length, recombinant enzyme. NUAK2 (h) was incubated with 8 mM MOPS pH 7.0, 0.2 mM EDTA, 300 μM […], 10 mM magnesium acetate and […] (specific activity and concentration as required). The reaction was initiated by the addition of the Mg/ATP mix. After incubation for 40 minutes at room temperature, the reaction was stopped by the addition of phosphoric acid to a concentration of 0.5%. 10 μL of the reaction was then spotted onto a P30 filter mat and washed four times for 4 minutes in 0.425% phosphoric acid and once in methanol prior to drying and scintillation counting. Compounds were routinely counter screened against Aurora A and NUAK1. The results are shown in Table 1 where IC50s are reported the following ranges: A: 0.1-10 nM; B: 11-100 nM; C: 101-1000 nM; D: >1000 nM for the compounds of Formula I)

NUAK1 = NUAK1 (Homo sapiens, UniProt O60285); test: NUAK1 counter screen; settings: read-out: NUAK1 (IC50)
Description: as §1

Aurora A = Aurora A (Homo sapiens, UniProt O14965); test: Aurora A counter screen; settings: read-out: AUR-A (IC50)
Description: as §1

- IC50 (NUAK2 (h)): 11 to 100 nM
- IC50 (NUAK1): 11 to 100 nM
- IC50 (Aurora A): 101 to 1000 nM
Compound: Cc1cnc(Nc2ccc(N3C[C@@H](C)N(C)[C@@H](C)C3)cc2OC(F)F)nc1Nc1ccsc1C(N)=O
